According to PubChem BioAssay AID602313 (National Center for Advancing Translational Sciences (NCATS), 2012):
Values joined by “and” are separate entries in the source; they are usually repeats but may differ in a detail not shown here. Equal values may be shown once. Only a part is listed here, and it is no random draw. Some tests of the compounds listed are not included; inactive here does not mean inactive elsewhere. Active and inactive are the calls of the source. Calls come from the whole dose curve; as a rule, active = well fitted inhibition curve with a large enough effect; inconclusive = small, poorly fitted or top-dose-only effect; inactive = flat fitted curve, though single readings scatter.

Assay: qHTS for Inhibitors of Vif-A3F Interactions: qHTS; note: % of control where 0% means no effect; nearly all actives have a fitted effect of over 65% in size
Conditions: HeLa A3F-eYFP + Vif (tagged APOBEC3F with the HIV-1 protein that degrades it), YFP fluorescence increase; at 46.1 µM (top of the series)
From the text: The recent discovery and characterization of host restriction factors, which provide a potent defense to invading retroviruses, has provided new targets for antiviral drug development. APOBEC3G (A3G) and APOBEC3F (A3F) are potent cytidine deaminases that block HIV-1 replication; HIV-1 expresses the Vif protein, which counteracts A3G and A3F by binding to them and inducing their proteasomal degradation. The Vif-A3G and Vif-A3F interactions provide two potential targets for development of small molecules which can interfere with the ability of Vif to degrade A3G or A3F. […] To identify inhibitors that can interfere with Vif mediated degradation of A3G and A3F, we have developed Hela cell lines that stably express A3G or A3F tagged with eYFP at the C-terminal end (A3G-eYFP or A3F-eYFP, respectively) and Vif. In the absence of an inhibitor, Vif induces degradation of A3G-eYFP and A3F-eYFP, and the cells are not fluorescent. In the presence of an inhibitor, it is expected that Vif will be unable to degrade A3G-eYFP and/or A3F-eYFP, resulting in an increase in yellow fluorescence. In this assays Vif A3F was screened against the Molecular Library Small Molecule Repository (MLSMR). NIH Chemical Genomics Center [NCGC] NIH Molecular Libraries Probe Centers Network [MLPCN] MLPCN Grant: MH093245 Assay Submitter (PI): Vinay Pathak, National Cancer Institute
5 uL of 700 cells/well of A3F-YFP cells are dispensed into black, clear bottom plates. The plates are incubated overnight at 37 deg C. 23 nL of compounds are added by pintool. The plates are incubated overnight at 37 deg C and then read on the TTP Acumen (Ex 488/ Em 500-530).

Structure (SMILES) | activity, negative = active
COc1ccc(C(=O)NCC2(N(C)C)CCCCC2)cc1Cl | inactive: -4.75%
COc1ccc(Cl)cc1C(=O)NCC1(N(C)C)CCCCC1 | inactive: -4.29%
COc1cccc(C(=O)NCC2(N3CCCCC3)CCCCC2)c1 | inactive: -5.75%
O=C(NCC1(N2CCCCC2)CCCCC1)c1cccc(Cl)c1 | inactive: -2.39%
CN(C)C1(CNC(=O)c2ccc(Br)cc2)CCCCC1 | inactive: -2.77%
COc1cc(C(=O)NCC2(N(C)C)CCCCC2)c([N+](=O)[O-])cc1OC | inactive: 0.764%
COc1ccc(Br)c(C(=O)NCC2(N3CCCCC3)CCCCC2)c1 | inactive: -3.55%
Cc1cccc(C(=O)NCC2(N(C)C)CCCCC2)c1 | inactive: -4.49%
COc1cc(C(=O)NCC2(N(C)C)CCCCC2)cc(OC)c1OC | inactive: 4.39%
C=C(C)C#CC(O)(C(=O)OC1CCN(C)CC1)c1ccccc1 (stereo unspecified) | inactive: -7.99%
CN(C)c1cccc(C(=O)NCC2(N(C)C)CCCCC2)c1 | inactive: 3.06%
O=C(OCCN1CCCC1)C(O)(c1ccccc1)c1ccccc1 | inactive: -13.5%
CC(C)Oc1ccc(C(=O)NCC2(N(C)C)CCCCC2)cc1 | inactive: -0.746% and inactive: 2.66%
O=C(OC1CN2CCC1CC2)C(CO)(c1ccccc1)c1ccccc1 (stereo unspecified) | inactive: -8.58%
COc1cccc(C(=O)NCC2(N3CCOCC3)CCCCC2)c1 | inactive: 0.61%
CC(C)COc1ccc(C(=O)NCC2(N(C)C)CCCCC2)cc1 | inactive: 2.44%
CC(C)N1C(=O)CC2(CCN(CCOC(=O)C(O)(c3ccccc3)c3ccccc3)CC2)C1=O | inactive: -1.8%
COc1cc(SC)ccc1C(=O)NCC1(N(C)C)CCCCC1 | inactive: -13.9%

Structure (SMILES) | activity, negative = active
CCN(CC)CC(C)C(C)OC(=O)C(O)(c1ccccc1)c1ccccc1 (stereo unspecified) | inactive: 5.35%
CN(C)C1(CNC(=O)c2cccc(Cl)c2)CCCCC1 | inactive: 0.255%
CN(C)C1(CNC(=O)c2ccccc2F)CCCCC1 | inactive: 7.21%
Cc1ccc(C(=O)NCC2(N3CCCCC3)CCCCC2)cc1 | inactive: -18.7%
O=C(NCC1(N2CCCCC2)CCCCC1)c1cc([N+](=O)[O-])ccc1Cl | inactive: -4.86%
CN1[C@@H]2CC[C@H]1CC(OC(=O)C(O)(c1ccccc1)c1ccccc1)C2 (stereo partly specified) | inactive: -1.97%
O=C(NCC1(N2CCCCC2)CCCCC1)c1cc(F)c(F)cc1Cl | inactive: -3.66%
C=CCN1CCN(CCOC(=O)C(O)(c2ccccc2)c2ccccc2)CC1 | inactive: -2.23%
O=C(NCC1(N2CCCCC2)CCCCC1)c1cccc(Br)c1 | inactive: 11.1%
Cc1cc(C(=O)NCC2(N3CCCCC3)CCCCC2)ccc1[N+](=O)[O-] | inactive: 4.68%
CCN1CCCC(OC(=O)C2(O)c3ccccc3C=Cc3ccccc32)C1 (stereo unspecified) | inactive: 2.13%
CCOc1cccc(C(=O)NCC2(N(C)C)CCCCC2)c1 | inactive: -4.8%
COc1ccc(C(=O)NCC2(N(C)C)CCCCC2)cc1 | inactive: -0.907%
CN(C)C1CCCC1OC(=O)C(O)(c1ccccc1)c1ccccc1 (stereo unspecified) | inactive: 4.86%
CN(C)c1ccc(C(=O)NCC2(N(C)C)CCCCC2)cc1 | inactive: 6.76%
CN(C)C1(CNC(=O)c2ccccc2[N+](=O)[O-])CCCCC1 | inactive: 4.8%
Cc1ccccc1C(=O)NCC1(N2CCCCC2)CCCCC1 | inactive: 0.223%
CCCCOc1ccccc1C(=O)NCC1(N(C)C)CCCCC1 | inactive: 0.226%
